The entries are a selection whose mix differs from that of the whole data set. Active and inactive are the calls of the source.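 Rule for the calls: active = superoxide response under a set limit, about three screen SD below normal (cut at about 65% in these data); inactive = the rest.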

The experiment can be described thus: yeast aging ROS inhibitors as calorie-restriction mimetics – HTS, primary screen (AID 2690).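 Note: yeast aged for seven days with compound at 30 °C before DHE staining; 100% = average MFI of all compound-treated wells on the plate with controls excluded.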 As to conditions: S. cerevisiae aged cells, superoxide DHE fluorescence; at 10 µM; stronger effect = lower value.
`O=C(Nc1cc([As](=O)(O)O)ccc1O)c1ccccc1`: the superoxide response (% of plate mean) is inactive: 87.6%.

With `CC(C)(C)C(=O)NC(Sc1ccncn1)C(Cl)(Cl)Cl` (configuration not stated), the superoxide response (% of plate mean) is inactive: 98.2%.

As for `O=[N+]([O-])c1ncn(CCn2ncnc2[N+](=O)[O-])n1`, the superoxide response (% of plate mean) is inactive: 154%.

As to `O=[N+]([O-])c1cccc(NC2=NCC(CBr)S2)c1` (configuration not stated), the superoxide response (% of plate mean) is inactive: 93.9%.

In the case of `O=C(O)CNc1ccc([As](=O)(O)O)cc1`, the superoxide response (% of plate mean) was inactive: 104%.

As to `COc1ccc(C2=NCC(CBr)S2)cc1` (configuration not stated), the superoxide response (% of plate mean) was inactive: 89.4%.

As for `CC(=O)N1C2C3N(C(C)=O)C1C1N(C(C)=O)C(C(N1C(C)=O)N3C(C)=O)N2C(C)=O`, the superoxide response (% of plate mean) is inactive: 95.8%.

In the case of `O=[N+]([O-])c1cccc2n[nH]nc12`, the superoxide response (% of plate mean) is inactive: 124%.

As for `O=[N+]([O-])c1cc([N+](=O)[O-])c(CCNc2ccccc2)c([N+](=O)[O-])c1`, the superoxide response (% of plate mean) was inactive: 117%.

Turning to `CCc1nc2c(n1)c1c(non1O)c1c2no[n+]1[O-]`, the superoxide response (% of plate mean) is inactive: 109%.

As for `Cc1ccc(NP(=O)(Oc2ccccc2)Oc2ccccc2)nc1`, the superoxide response (% of plate mean) was inactive: 98.9%.

On to `C[N+]1=C2C=CC=CC=C2SC12C([N+](=O)[O-])=CC([N+](=O)[O-])=C[C-]2[N+](=O)[O-]` (configuration not stated), for which the superoxide response (% of plate mean) was inactive: 116%.

As for `Nc1ccc([As](=O)(O)c2ccc(N)cc2)cc1`, the superoxide response (% of plate mean) is inactive: 107%.

Consider `CCN(/C(=N/P(=O)(N1CCOCC1)N1CCOCC1)N1CCOCC1)c1ccc(OC)cc1`, for which the superoxide response (% of plate mean) is inactive: 96.5%.

`CN(C)C(=O)OCCc1n(C)cc[n+]1C`: the superoxide response (% of plate mean) is inactive: 97.5%.

On to `CC(C)=N/N=C(\N)N[N+](=O)[O-]`, for which the superoxide response (% of plate mean) is inactive: 99.5%.

For the molecule `CC1CCN(C(=O)Oc2c(Cl)cc(Cl)c3cccnc23)CC1`, the superoxide response (% of plate mean) was inactive: 96.9%.

`NC(=O)c1cc([N+](=O)[O-])cc([N+](=O)[O-])c1N`: the superoxide response (% of plate mean) is inactive: 97.9%.

For `Cc1ccc(N/C(=N/P(=O)(N2CCOCC2)N2CCOCC2)N2CCOCC2)cc1`, the superoxide response (% of plate mean) was inactive: 90.7%.

Turning to `CN(C(=O)Cc1ccc(Cl)c(Cl)c1)[C@H]1CCCC[C@H]1N1CCCC1`, the superoxide response (% of plate mean) is inactive: 88.2%.

With `Cc1ccc(OP(=O)(Nc2nccs2)Oc2ccc(C)cc2)cc1`, the superoxide response (% of plate mean) is inactive: 120%.

Turning to `COc1ccccc1OP(=O)(Nc1ccc(C)cn1)Oc1ccccc1OC`, the superoxide response (% of plate mean) was inactive: 86.3%.

In the case of `Clc1ccc(Cl)c(NC2=NCC(CBr)S2)c1` (configuration not stated), the superoxide response (% of plate mean) is inactive: 102%.

For `CN1CCCC(OC(=O)C(c2ccccc2)c2ccccc2)C1` (configuration not stated), the superoxide response (% of plate mean) was inactive: 104%.

With `CC(C)CC(=O)NC(Sc1ccc(Cl)cc1)C(Cl)(Cl)Cl` (configuration not stated), the superoxide response (% of plate mean) was inactive: 104%.

With `Nc1cc(N)c2nonc2c1[N+](=O)[O-]`, the superoxide response (% of plate mean) is inactive: 94.7%.

In the case of `Cc1c2non([O-])c-2c(C)[n+](=O)[n+]1[O-]`, the superoxide response (% of plate mean) is inactive: 86.4%.

`O=C(NC(Sc1ccncn1)C(Cl)(Cl)Cl)c1ccccc1` (configuration not stated): the superoxide response (% of plate mean) was inactive: 104%.

Take `Oc1ccccc1CNc1ccccn1`: the superoxide response (% of plate mean) was inactive: 98.5%.

Regarding `O=C(O)c1ccccc1[As](=O)(O)O`, the superoxide response (% of plate mean) was inactive: 108%.

With `CC(=O)Nc1ccc([As](=O)(O)O)cc1`, the superoxide response (% of plate mean) is inactive: 102%.

Turning to `O=P(Nc1nc2ccc(Cl)cc2s1)(c1ccccc1)c1ccccc1`, the superoxide response (% of plate mean) was inactive: 106%.

For `CN(C(=O)Cc1ccc(Cl)c(Cl)c1)[C@H]1CCCC[C@@H]1N1CCCC1`, the superoxide response (% of plate mean) was inactive: 104%.

Consider `Cc1ccc(NP(=O)(Oc2ccccc2F)Oc2ccccc2F)nc1`, for which the superoxide response (% of plate mean) is inactive: 108%.

Take `CCOP(=O)(Nc1ccccc1)OCC`: the superoxide response (% of plate mean) was inactive: 114%.

On to `Cc1cc(SC(NC(=O)c2ccc(F)cc2)C(Cl)(Cl)Cl)ncn1` (configuration not stated), for which the superoxide response (% of plate mean) was inactive: 96.2%.

For the molecule `O=[N+]([O-])c1cc([N+](=O)[O-])c(CCN2CCOCC2)c([N+](=O)[O-])c1`, the superoxide response (% of plate mean) is inactive: 127%.

With `CCN(N=Nc1nonc1N)c1nonc1N`, the superoxide response (% of plate mean) is inactive: 110%.

For `Nc1cccc2ccc([As](=O)(O)O)cc12`, the superoxide response (% of plate mean) was inactive: 116%.

With `O=C(NC1CCS(=O)(=O)C1)NP(=S)(Oc1ccccc1)Oc1ccccc1` (configuration not stated), the superoxide response (% of plate mean) was inactive: 97.5%.

Consider `CCNC(=S)/N=C(\N)N[N+](=O)[O-]`, for which the superoxide response (% of plate mean) was inactive: 101%.

`Cc1ccc(NP(=O)(Oc2cccc(C)c2)Oc2cccc(C)c2)nc1`: the superoxide response (% of plate mean) is inactive: 116%.

Consider `CCOC(=O)NC(Sc1ccccc1)C(Cl)(Cl)Cl` (configuration not stated), for which the superoxide response (% of plate mean) is inactive: 88.1%.

As to `c1ccc(-c2nn[nH]n2)c(-c2nn[nH]n2)c1`, the superoxide response (% of plate mean) is inactive: 103%.

`CC(=O)NC(SC(=S)N(CC(C)C)CC(C)C)C(Cl)(Cl)Cl` (configuration not stated): the superoxide response (% of plate mean) was inactive: 99.5%.

With `Cc1ccc(OP(=O)(Nc2ccccn2)Oc2ccc(C)cc2)cc1`, the superoxide response (% of plate mean) is inactive: 98.2%.

`COC(=O)c1cc2c(s1)N=C(c1ccccc1)N(C)P2(=O)N1CCOCC1` (configuration not stated): the superoxide response (% of plate mean) was inactive: 95.5%.

On to `CCC(=O)N1C2C3N(C(=O)CC)C1C1N(C(=O)CC)C(C(N1C(=O)CC)N3C(=O)CC)N2C(=O)CC`, for which the superoxide response (% of plate mean) was inactive: 96.9%.

Turning to `O=C(OC1CN2CCC1CC2)c1ccccc1` (configuration not stated), the superoxide response (% of plate mean) is active: 40%.

Consider `CN(C)C(=O)Oc1noc2ccccc12`, for which the superoxide response (% of plate mean) was inactive: 116%.

As to `Cc1ccccc1OP(=O)(Nc1ccccn1)Oc1ccccc1C`, the superoxide response (% of plate mean) is inactive: 99.6%.

As for `CC(NC(=O)COC(=O)C(O)(c1ccccc1)c1ccccc1)c1ccccc1` (configuration not stated), the superoxide response (% of plate mean) is inactive: 105%.

The values are drawn from PubChem BioAssay AID2690 (NMMLSC, 2010).
